Here are results for 1 compound from patent US20120053176A1, “ADENOSINE A3 RECEPTOR MODULATING COMPOUNDS AND METHODS OF USE THEREOF” (AMBIT BIOSCIENCES CORP., priority 2010, published 2012).

Chains of the proteins cited; added tags and fusions are not shown.
UniProt P0DMS8, whole entry: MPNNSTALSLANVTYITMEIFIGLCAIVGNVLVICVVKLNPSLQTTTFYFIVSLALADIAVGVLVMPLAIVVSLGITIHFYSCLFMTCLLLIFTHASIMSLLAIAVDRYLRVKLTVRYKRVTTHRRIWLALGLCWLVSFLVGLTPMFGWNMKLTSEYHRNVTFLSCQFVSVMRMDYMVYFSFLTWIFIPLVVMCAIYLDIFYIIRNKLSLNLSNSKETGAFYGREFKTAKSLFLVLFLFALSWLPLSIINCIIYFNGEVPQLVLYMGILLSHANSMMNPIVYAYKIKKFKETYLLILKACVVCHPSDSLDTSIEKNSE

The target in test [1] is T1, human adenosine A3 receptor (Homo sapiens, UniProt P0DMS8).
T1 construct: expressed in transfected cells; host or cells: CHO-K1 cells
Nature of the test: adenosine A3 receptor GTPγS binding assay in antagonist format. The test is classed as biochemical. Particulars: [35S]GTPγS bound relative to 2-C1-IB-MECA response; human CHO-K1 cells expressing human adenosine A3 receptor; 30° C., 30 min; read-out: IC50 against adenosine A3.

Test [2] deals with T2, human ADORA3 (Homo sapiens, UniProt P0DMS8).
T2 construct: expressed in transfected cells
Put plainly: PathHunter cAMP Hunter assay, antagonist mode. The test is classed as cell-based. The following applies: Gi antagonist mode; human ADORA3-expressing cAMP Hunter cell line; forskolin and C1-MB-NECA challenge at EC80.

In test [3] the target is T2, human ADORA3. Put plainly: PathHunter β-Arrestin assay, antagonist mode. The test is classed as cell-based. Particulars: human ADORA3-expressing PathHunter cell line, C1-MB-NECA agonist challenge at EC80.

Where a name gives a salt, the structure may show the parent alone.

The IC50 is the concentration needed to halve the response being measured. In general, EC50 refers to the concentration that produces a half-maximal response. Low readings indicate a more potent agent, high ones a less potent agent. With `Cc1cc(Nc2nc(C(O)c3ccc(F)cc3)nc3ccccc23)n[nH]1` (racemic) [Example 12, (R,S)-(4-fluorophenyl)(4-(5-methyl-1H-pyrazol-3-ylamino)quinazolin-2-yl)methanol hydrochloride], in test [1], the half-inhibitory concentration (IC50) was 0.0629 µM. For the same compound, the results for the EC50 in test [2] and in test [3] were 0.0065 µM and 0.0276 µM, respectively.
